The text below walks through data of US10214546B2, “Btk inhibitors” (MERCK SHARP & DOHME CORP., priority 2014, dated 2019).

By UniProt entry, the sequences of proteins in these tests, tags left out. Where a name states a change or a piece, a line headed by the entry shows the natural chain unless it says otherwise.
UniProt Q06187: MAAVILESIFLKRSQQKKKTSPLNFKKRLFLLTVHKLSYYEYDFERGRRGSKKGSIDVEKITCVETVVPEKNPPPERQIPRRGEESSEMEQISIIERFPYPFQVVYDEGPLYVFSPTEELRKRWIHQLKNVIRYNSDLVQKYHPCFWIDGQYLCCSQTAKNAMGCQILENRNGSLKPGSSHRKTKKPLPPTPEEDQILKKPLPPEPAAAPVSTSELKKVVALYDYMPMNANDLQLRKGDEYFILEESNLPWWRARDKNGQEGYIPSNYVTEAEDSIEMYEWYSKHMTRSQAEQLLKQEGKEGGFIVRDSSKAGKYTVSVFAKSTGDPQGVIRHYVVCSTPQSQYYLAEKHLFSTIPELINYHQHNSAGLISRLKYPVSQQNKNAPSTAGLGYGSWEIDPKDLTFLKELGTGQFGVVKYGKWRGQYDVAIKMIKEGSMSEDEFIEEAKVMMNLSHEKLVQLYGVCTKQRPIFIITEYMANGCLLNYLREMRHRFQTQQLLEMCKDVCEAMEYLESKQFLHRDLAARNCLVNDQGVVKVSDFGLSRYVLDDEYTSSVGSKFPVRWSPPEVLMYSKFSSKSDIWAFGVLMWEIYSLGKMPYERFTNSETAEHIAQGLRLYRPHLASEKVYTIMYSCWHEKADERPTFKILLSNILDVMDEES

The target of the experiment is BTK enzyme (recombinant full-length BTK, hBTK) (Homo sapiens (Human), UniProt Q06187). The experiment is described as follows: BTK enzymatic activity LANCE TR-FRET assay. Type of experiment: biochemical. Conditions: 50 pM hBTK, 25 μM ATP, 2 μM biotin-A5-peptide; compound range 1 μM to 0.017 nM; read-out: BTK binding IC50. Here is the method:
Btk Enzyme Activity Assay Methods
BTK enzymatic activity was determined with the LANCE (Lanthanide Chelate Excite) TR-FRET (Time-resolved fluorescence resonance energy transfer) assay. […] To each well of a black non-binding surface Corning 384-well microplate (Corning Catalog #3820), 5 nL of compound (2000 fold dilution in final assay volume of 10 μL) was dispensed, followed by the addition of 7.5 μL of 1× kinase buffer (50 mM Hepes 7.5, 10 mM MgCl2, 0.01% Brij-35, 1 mM EGTA, 0.05% BSA & 1 mM DTT) containing 5.09 pg/μL (66.67 pM) of BTK enzyme (recombinant protein from baculovirus-transfected Sf9 cells: full-length BTK, 6HIS-tag cleaved). […] After 60 minutes incubation with detection reagents, reaction plates were read on a PerkinElmer EnVision plate reader using standard TR-FRET protocol. […] Fluorescence intensity at both 665 nm (acceptor) and 615 nm (donor) are measured and a TR-FRET ratio calculated for each well (acceptor intensity/donor intensity). IC50 values were determined by 4 parameter robust fit of TR-FRET ratio values vs. (Log10) compound concentrations.
The following Table 4 provides specific IC50 values for all the examples. The IC50 values set forth below were determined according to Assay method described above.
For orientation: Time-resolved FRET reads energy transfer from a long-lived donor to a nearby acceptor.

For orientation: IC50 means the concentration needed to halve the response being measured. On to `COc1cc([C@@](O)(c2ccccc2)C(F)(F)F)ccc1-c1nc([C@@H]2CC[C@H]3CCC(=O)N3C2)n2ccnc(N)c12` [Example 33, (6R,8aS)-6-(8-amino-1-{2-methoxy-4-[(1S)-2,2,2-trifluoro-1-hydroxy-1-phenylethyl]phenyl}imidazo[1,5-a]pyrazin-3-yl)hexahydroindolizin-3(2H)-one], for which the IC50 was determined as 0.54 nM.
